From PMC9865188 (Pharmaceutics, 2023)
Values after ≈ are worked out from the molar mass of the structure shown.

Tests used:
physchem [1] = experiment: physchem
physchem [2] = settings: pH 7.4, aqueous buffer, thermodynamic from solid

O[C@@H](COc1cccc2ncccc12)CN1CCN([C@@H]2c3ccccc3[C@@H]3[C@H](c4ccccc42)C3(F)F)CC1 [zosuquidar]
pKa3 (DMSO cosolvent, extrapolated to 0% DMSO (Yasuda–Shedlovsky)): 7.9 | pKa2 (pure water, 25 °C, 0.15 M potassium chloride): 4.8 | pKa (physchem [1]; pKa1, pure water, 25 °C, 0.15 M potassium chloride): 1.5 ± 0.4 | pKa (physchem [1]; pKa2, DMSO cosolvent, extrapolated to 0% DMSO (Yasuda–Shedlovsky)): 4.83 ± 0.03 | pKa (physchem [1]; pKa2, pure water, 25 °C, 0.15 M potassium chloride): 4.78 ± 0.03 | pKa (physchem [1]; pKa3, DMSO cosolvent, extrapolated to 0% DMSO (Yasuda–Shedlovsky)): 7.94 ± 0.01 | solubility (physchem [2]): 2.08 ± 0.3 µM (≈ 1.1 µg/mL)
